Molecular target: EGFR (Homo sapiens, UniProt P00533)
Experiment: BLI

- Kd: 0.899 nM
B1: nimotuzumab (antibody, V domains shown)
VH: QVQLQQSGAEVKKPGSSVKVSCKASGYTFTNYYIYWVRQAPGQGLEWIGGINPTSGGSNFNEKFKTRVTITADESSTTAYMELSSLRSEDTAFYFCTRQGLWFDSDGRGFDFWGQGTTVTVSS
VL: DIQMTQSPSSLSASVGDRVTITCRSSQNIVHSNGNTYLDWYQQTPGKAPKLLIYKVSNRFSGVPSRFSGSGSGTDFTFTISSLQPEDIATYYCFQYSHVPWTFGQGTKLQIT
